# Results published in patent publication US20260183363A1, “INHIBITION OF LUTEINIZING HORMONE (LH) ACTION AS TREATMENT OF PERIMENOPAUSAL AND POSTMENOPAUSAL SYMPTOMS AND COMPLICATIONS” (RIGSHOSPITALET, priority 2022, published 2026).
# Tests used:
# [1] = test system: TERT cells; test: UCP1 and DIO2 expression in adipocytes after LH or hCG; type: cell-based, human; conditions: 48 hours exposure, two doses, compared with vehicle
# Protocol: The human-derived adipocyte-cell-models used were: hMADS (from a subcutaneous depot), human Simpson-Golabi-Behmel syndrome (SGBS) preadipocyte cell strain, and TERT-hWA (from a subcutaneous neck depot). They were propagated and differentiated as briefly described here: All cells were cultured until two days post-confluence (designated day 0) where they were induced to differentiate in advanced DMEM/F12 supplemented with 2% fetal bovine serum (FBS) (Life Technologies), L-glutamine (2 mM) (Life Technologies), penicillin (62.5 μg/mL), streptomycin (100 μg/mL) Sigma-Aldrich), insulin (5 ug/mL) (Roche), examethasone (1 μM) (Sigma-Aldrich), 3-isobutyl-1-methylxanthine (0.5 mM) (Sigma-Aldrich), rosiglitazone (1 μM) (Cayman Chemical), human cortisol (1 μM) (Sigma-Aldrich) and T3 (1 nM) (Sigma-Aldrich). At day 3, the medium was refreshed with the same medium used at day 0. At day 6 and 9, the cells received Advanced DMEM/F12 supplemented with 2% FBS. At day 12, the adipocytes were defined as mature, and the percentage of differentiated cells was 50-70% based on microscopic inspection irrespective of cell model. RNA was extracted for cDNA synthesis from undifferentiated (designated day 0) and differentiated (day 12) cells and PCR was conducted using specific primers. All analyses were analyzed with student t-test or ANOVA using the corresponding control/baseline as reference value. Every p-value presented was adjusted for multiple comparisons with Dunnett's post hoc test.
# [2] = test system: human kidney tissue; test: Ex vivo culture of human kidney tissue, qRT-PCR gene expression; type: cell-based
# Protocol: Human kidney tissues from 5 adults (4 men, 1 […]) were cultured. All donors underwent partial nephrectomy due to suspected malignant kidney tumors and a pathologist removed tissues outside the malignant area. Kidney specimens were dissected in small pieces 1 mm^3 and cultured for either 3 or 24 hours in a hanging drop ex vivo model. Tissues were treated with either vehicle (media containing DMEM, insulin-transferrin-selenium, penicillin, streptomycin and 10% fetal bovine serum) or media also containing one of the following: PTH (0.01 pg/mL), LH (1 IU/mL), hCG (1 IU/mL), estradiol (1 nmol/L) or testosterone (50 nmol/L) and subsequently stored at −80° C. for subsequent RNA purification and cDNA synthesis.
# Gene expression profiling was done by qRT-PCR analyzing levels of calcium transporters SLC12A-1, SLC12A-2, TRPV5 as well as calcium-sensing receptor (CASR). The inventors also measured kidney expression of exon 2-4 and 11 of LHCGR using a primer-sequence previously validated by sequencing of the product from both serum and testis tissue. As calcium transporters are differentially expressed in the different parts of the nephron, all samples were standardized according to the expression of Uromodulin (UMOD), a protein located in the thick ascending limb of the loop of Henle and subsequently to MAP3K7 expressed in the distal convoluted tubules and in addition to being standardized to the housekeeping gene, RPS20. Ethical committee approval: H-17004362. All samples were analyzed with ANOVA with control/baseline as reference value and every p-value presented was adjusted for multiple comparisons with Dunnett's post hoc test.
# [3] = test system: person with Familial Hypocalciuric Hypercalcemia (FHH); test: Injection of 5000 IU hCG in a person with Familial Hypocalciuric Hypercalcemia; type: in vivo, human
# Protocol: 11 healthy men and 10 men with previous testicular cancer and hemi-orchiectomy and/or testicular radiation were invited to participate in a prospective clinical trial, receiving 5000 IU hCG (Pregnyl) intramuscularly. They were followed longitudinally with blood- and urine sampling at baseline and 2, 8, 24, 72 and 120 hours after injection. All samples were drawn while fasting except after 8 hours. Sampling and subsequent injection at baseline and sampling at 24, 72, and 120 hours were done between 8.00 am and 9.30 am. Electro-cardiogram (ECG) was monitored at baseline and after 8 and 24 hours and QTc interval was calculated using Bazett's formula. Age, BMI and reproductive hormones on the 11 healthy men have previously been published in a baseline table. The inventors also investigated one person with an inactivating mutation in their Calcium Sensing Receptor […] heterozygote, resulting in Familial Hypocalciuric Hypercalcemia (FHH) who was evaluated in our andrological clinic fasting blood- and urine samples which were collected at baseline, 2, 24 and 72 hours after injection of 5000 IU hCG. […] Serum FSH and LH levels were also measured with Delfia, CV<5% for both. […] CTX1 (CV 8%) and P1NP (CV 8%) were both measured on IDSi10. Serum and urinal total calcium (CV 2.5%), creatinine (CV 5%), and phosphate (CV 6%), and serum calcitonin (CV 7%) and serum PTH (CV<4%) were all measured using Cobas 8000 while serum ionized calcium (CV 3%) was measured on ABL 837. Longitudinal assessment of blood- and urine samples (delta values) were calculated as fold change relative to baseline for each person with all samples' initial value starting at one. All analyses were analyzed with ANOVA with control/baseline as reference value. Every p-value presented was adjusted for multiple comparisons with Dunnett's post hoc test. However, evaluation of changes in QTc interval on ECGs was available only at two time points and therefore statistically analyzed using paired T-test.
substance,measurement,setting,value
"hCG: human chorionic gonadotropin (Pregnyl), LHCGR agonist with longer serum half-life than LH",DIO2 expression,[1],downregulated
same,UCP1 expression,[1],downregulated
same,"expression levels of CASR and calcium transporters SLC12A-1, SLC12A-2, SLC12A-3",[2]; 3 or 24 hours culture,no transcriptional changes
same,expression of LHCGR exon 2-4,[2]; three hours culture,tendency towards increased expression
same,urinary calcium excretion,"[3]; 2 hours upon injection, compared to healthy men",strikingly increased
same,Serum albumin,[3]; after 24 hours,increased
same,FSH and LH suppressed,[3]; after 72 hours,more than 60%
same,serum ionized calcium and total calcium,[3]; after both 24 and 72 hours,drastic drop
same,sex steroids,[3]; compared with the 11 healthy men,large increase
same,P1NP,[3]; in vivo,increased
same,PTH,[3]; in vivo,increase in PTH within the range of the healthy men
same,serum phosphate,[3]; in vivo,more pronounced decrease
same,CTX1,[3]; still evident after 72 hours,substantial increase
